# Source: PubChem BioAssay
# ClpP mod: qHTS Assay for Activators of ClpP; purified B. subtilis ClpP, FRET peptide cleavage, 20 min; actives 1.9% (n = 340,000); AID 651965, 2013; ATP-dependent Clp protease proteolytic subunit (Bacillus subtilis (strain 168)), P80244; Potency, µM (highest dose often 57.5 µM), without a hit: top-dose activity change, negative = active; active = well fitted falling curve with a large enough effect; inconclusive = small, poorly fitted or top-dose-only effect; inactive = no such curve, though single readings can be large or run the other way; note: potency is the fitted concentration of half-maximal effect; the source files actives as falling curves though it sought activators and does not explain the sign; nearly all actives have a fitted effect of over 65% in size
#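 Buffer: 100 mM Tris/HCl pH8, 100 mM KCl, 0.05% low protease BSA, 2.5% glycerol, 0.01% Tween-20. ClpP 10 microg/mL final; 20 min RT; delta FRET normalized to ADEP and DMSO controls.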
# Nrf2 ARE act: activates Nrf2 signaling. AREc32 ARE-luciferase reporter (MCF7-derived line), luminescence, 24 h. Potency, µM (series often up to 46.1 µM), for the others: top-dose activation, usual class: activators. actives 0.31% (n = 410,000). AID 624171; note: potency is the fitted concentration of half-maximal effect; % of control where 0% means no effect; nearly all actives have a fitted effect of over 65% in size
#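 For detection, Steady-Glo was added and plates sat 30 min at RT; before that, AREc32_Fluc cells grown overnight in OPTI-MEM/5% FBS had been treated with 23 nL compound for 24 hr at 37 deg C.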
# miR-21 reporter: raises the signal of a miR-21 reporter | HeLa miR-21 FLuc reporter, luciferase, 48 h | Potency, µM (doses to about 38.3 µM), for the others: at the highest dose reporter change, positive = more light | 340,000 tested, under 10 active | AID 2288; active = well fitted rising curve with a large enough effect; inconclusive = small, poorly fitted or top-dose-only effect; inactive = no such curve, though single readings can be large or run the other way;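 also: % of control where 0% means no effect; miR-21 action dims this reporter so a rising signal means less miR-21 action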
#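 Compounds were titrated across several concentrations (up to approximately 40 uM) and incubated 48 hours with HeLa miR-21-FLuc reporter cells (miR-21 target sequence downstream of FLuc, endogenous miR-21). Readout was firefly luciferase luminescence after lytic detection reagent.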
# Nrf2 inh: Nrf2 pathway inhibition; actives 2.1% (n = 360,000); Potency, µM (top dose mostly 46 µM), for inactives: at the top dose activity change, negative = inhibition, most hits filed as inhibitors; AID 504444; A549 ARE-Fluc reporter, luciferase luminescence, 18-24 h; note: potency is the fitted concentration of half-maximal effect; % is set by controls: 0 for no effect and ±100 for the full control effect; nearly all actives have a fitted effect of over 60% in size
#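 Nrf2 function is reported as luminescence of an ARE-controlled luciferase in A549 cells. Compounds were tested at several concentrations, and a CellTiter-Fluor read on the same wells flagged cytotoxicity.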
# TCR act: T cell receptor activation. Potency, µM (top dose mostly 9.22 µM), inactives show at the top dose activation of IL-2 secretion, actives largely listed as activators. primary human leukocytes, anti-CD3, IL-2 HTRF, 48 h. AID 504894. 330,000 tested, under 10 active; note: % of control where 0% means no effect
#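 Using a-CD3 beads without co-stimulation, primary human leukocytes were exposed to compounds for 48 hr. An HTRF IL-2 kit measured the cytokine, with europium-to-d2 energy transfer producing emission at 665nm upon 320nm excitation.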
# A549 viability: A549 cytotoxicity, counter-screen for Nrf2 inhibitors | A549 ARE-Fluc cells, CellTiter-Fluor viability, 18-24 h | Potency, µM (titrated, usually from 46 µM), without a hit: at the highest dose activity change, negative = cytotoxicity, usual class: inhibitors | actives 0.16% (n = 390,000); note: potency is the fitted concentration of half-maximal effect; % is set by controls: 0 for no effect and ±100 for the full control effect
#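 A549 ARE-Fluc cells in 5% FBS OPTI-MEM, 5000 cells/well, rested 2 h then exposed to compounds in concentration-response for 18-24 h at 37 °C. Viability by CellTiter-Fluor fluorescence (Ex 405/Em 525) after 30 min; luciferase luminescence (BugLite, 15 min, RT) read afterwards.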
# The depositor's hits bear a star; ? = inconclusive; . = no result given; ! = a repeat was not active; [ ] = dose if it differs, or a comment. The list is not random: actives were taken first. Their share in the collection is about 3.7%. Unless noted, calls come from the whole dose curve; as a rule, active = well fitted curve in the direction sought with a large enough effect; inconclusive = small, poorly fitted or top-dose-only effect, or another doubt; inactive = no such curve, though single readings can be large; an effect the other way counts as inactive or inconclusive.
# Labels used below – A = ClpP mod; B = Nrf2 ARE act; C = miR-21 reporter; D = Nrf2 inh; E = TCR act; F = A549 viability
Cc1cccc(NC(=O)c2c(NC(=O)C(F)(F)F)sc3c2CCCCC3)c1
  A: 1%; B: -3%; C: ?; D: 2.6µM*; E: .; F: ?

Cc1ccccc1NC(=O)c1c(NC(=O)C(F)(F)F)sc2c1CCCCC2
  A: 0%; B: -2%; C: ?; D: 2.3µM*; E: .; F: ?

O=C(Nc1cccc(Cl)c1)c1c(NC(=O)C(F)(F)F)sc2c1CCCC2
  A: -1%; B: 0%; C: 15%; D: ?; E: .; F: ?

Cc1ccc(NC(=O)c2c(NC(=O)C(F)(F)F)sc3c2CCCCC3)cc1
  A: -3%; B: -1%; C: ?; D: 2.6µM*; E: .; F: ?

O=C(O)CCC(=O)Nc1sc2c(c1C(=O)Nc1ccccc1)CCCCC2
  A: 0%; B: 14µM*!; C: -23%; D: 14%; E: 6%; F: -1%

Cc1ccc(NC(=O)c2c(NC(=O)c3ccccc3)sc3c2CCC3)cc1
  A: 1%; B: 1%; C: 1%; D: 11%; E: .; F: 1%

COc1ccc(NC(=O)c2nc(-c3ccc(C)cc3)n3c2CCCCC3)cc1
  A: -26%; B: 1%; C: -1%; D: -30%; E: .; F: -3%

CN(Cc1ccc(F)cc1)C(=O)c1ccc(NC(=O)CC2SC(N3CCCC3)=NC2=O)cc1 (centres undefined)
  A: -4%; B: 0%; C: .; D: -17%; E: 0%; F: -3%

O=C(N/N=C1\C2CN3CCN(C2)CC1(c1ccccc1)C3)c1ccc(F)cc1
  A: .; B: 0%; C: -9%; D: 21%; E: -2%[46.1 µM]; F: 0%

CC(C)(C)c1ccc(C(=O)N/N=C2\C3CN4CCN(C3)CC2(c2ccccc2)C4)cc1
  A: 22µM*; B: 2%; C: -12%; D: 11%; E: 0%[46.1 µM]; F: 0%

# Brought forward from above: 4 compounds, then new ones.
# Labels used below – A = ClpP mod; B = Nrf2 ARE act; C = miR-21 reporter; D = Nrf2 inh; E = TCR act; F = A549 viability
COc1ccc(NC(=O)c2nc(-c3ccc(C)cc3)n3c2CCCCC3)cc1
  A: -26%; B: 1%; C: -1%; D: -30%; E: .; F: -3%

CN(Cc1ccc(F)cc1)C(=O)c1ccc(NC(=O)CC2SC(N3CCCC3)=NC2=O)cc1 (centres undefined)
  A: -4%; B: 0%; C: .; D: -17%; E: 0%; F: -3%

O=C(N/N=C1\C2CN3CCN(C2)CC1(c1ccccc1)C3)c1ccc(F)cc1
  A: .; B: 0%; C: -9%; D: 21%; E: -2%[46.1 µM]; F: 0%

CC(C)(C)c1ccc(C(=O)N/N=C2\C3CN4CCN(C3)CC2(c2ccccc2)C4)cc1
  A: 22µM*; B: 2%; C: -12%; D: 11%; E: 0%[46.1 µM]; F: 0%

CNC(=O)C1CCC(Cn2c(=O)c3sccc3n(CC(=O)Nc3cc(F)ccc3F)c2=O)CC1 (centres undefined)
  A: -1%; B: 0%; C: -1%; D: ?; E: .; F: 1%

CCNC(=O)C1(C)CCN1C(=O)CCc1cccc(Cl)c1 (centres undefined)
  A: 1%; B: 0%; C: .; D: .; E: .; F: .

CCc1ccc2nc3nc(C)cc(C)c3c(N)c2c1
  A: 11µM*; B: 9%; C: 18%; D: ?; E: -1%; F: 21%

Cc1cc(C)c2c(N)c3ccccc3nc2n1
  A: 65%; B: 3%; C: ?; D: ?; E: 0%; F: .

CSc1nsc(SC)c1C(=O)Nc1ccc(C(C)(C)C)cc1
  A: .; B: 11µM*; C: -22%; D: ?; E: 10%; F: 6%

CSc1nsc(SC)c1C(=O)NC(=O)Nc1cccnc1
  A: -5%; B: 2%; C: -3%; D: -27%; E: -9%; F: -11%

CC(=O)N1c2ccc(S(=O)(=O)NCC3CCC(C(=O)Nc4cccc(C)c4)CC3)cc2CC1C (centres undefined)
  A: 1%; B: 6%; C: 13%; D: ?; E: .; F: -2%

CCc1cccc(NC(=O)C2CCC(CNS(=O)(=O)c3ccc4c(c3)CCCC(=O)N4)CC2)c1 (centres undefined)
  A: 1%; B: 10%; C: 22%; D: 13µM*; E: .; F: 0%

COc1cccc(NC(=O)C2CCC(CNS(=O)(=O)c3ccc4c(c3)CC(C)N4C(C)=O)CC2)c1 (centres undefined)
  A: -4%; B: 6%; C: ?; D: 21µM*; E: 0%; F: 0%

CC(=O)N1c2ccc(S(=O)(=O)NCC3CCC(C(=O)NC4CCC(C)CC4)CC3)cc2CC1C (centres undefined)
  A: 0%; B: 0%; C: 14%; D: 16µM*; E: 8%; F: 3%

COc1ccc(CNC(=O)C2CCC(CNS(=O)(=O)c3ccc4c(c3)CCCC(=O)N4)CC2)cc1 (centres undefined)
  A: 0%; B: 10%; C: 3%; D: 0%; E: .; F: ?

COc1ccc(-c2ccc3ncnc(NCc4nc(C)cs4)c3c2)cc1OC
  A: .; B: .; C: .; D: ?; E: .; F: 4%

COc1ccc(N2CCN(C(=O)CCn3cnc4onc(-c5ccc(F)cc5)c4c3=O)CC2)cc1
  A: -2%; B: 0%; C: 0%; D: ?; E: .; F: -4%

COc1cccc(N2CCN(C(=O)Cn3cnc4onc(-c5ccc(F)cc5)c4c3=O)CC2)c1
  A: -5%; B: 2%; C: -3%; D: 16µM*; E: .; F: 3%

COc1ccccc1CNC(=O)Cn1cc2c(n1)-c1c(oc(C(=O)N3CCOCC3)c1C)CC2
  A: -6%; B: 1%; C: 13%; D: ?; E: .; F: -9%

Cc1ccc(S(=O)(=O)c2nc(S(C)(=O)=O)sc2N2CCC(O)CC2)cc1
  A: 0%; B: 8.9µM*; C: 8%; D: -4%; E: 0%; F: 0%

Cc1cc(Cl)ccc1NC(=O)CCS(=O)(=O)c1ccc2c(c1)CC(C)N2C(=O)C1CC1 (centres undefined)
  A: 1%; B: 3%; C: ?; D: ?; E: .; F: 4%

O=C(Nc1ccc(F)c(F)c1)c1ccc(-n2cncn2)c([N+](=O)[O-])c1
  A: 0%; B: 2%; C: .; D: 10µM*; E: -6%; F: -15%

COc1ccc(C2Nc3ccccc3C(=O)N2c2ccc(F)cc2)cc1COc1ccc(NC(C)=O)cc1 (centres undefined)
  A: 5%; B: .; C: .; D: 26%; E: .; F: -5%

COc1ccc(C2Nc3ccccc3C(=O)N2Cc2ccccc2)cc1COc1ccccc1OC (centres undefined)
  A: .; B: .; C: .; D: -27%; E: .; F: 2%

c1ccc2c(c1)NC(c1ccncc1)n1c-2nc2ccccc21 (centres undefined)
  A: 28µM*; B: 8%; C: -19%; D: -4%; E: 0%; F: -9%

COc1ccc(C2Nc3ccccc3C(=O)N2c2ccc(F)cc2)cc1CSc1ccccn1 (centres undefined)
  A: 8.9µM*; B: 3%; C: -28%; D: 3%; E: -2%[46.1 µM]; F: 3%

COc1ccc(C2Nc3ccccc3C(=O)N2Cc2ccccc2)cc1CSc1ccccn1 (centres undefined)
  A: 14µM*; B: 4%; C: -6%; D: 8%; E: 5%; F: 7%

COc1cc(C2Nc3ccccc3C(=O)N2c2ccccc2)ccc1O (centres undefined)
  A: ?; B: 2%; C: -28%[0.307 µM]; D: ?; E: -14%; F: -7%

c1csc(C2Nc3ccccc3-c3nc4ccccc4n32)c1 (centres undefined)
  A: 11%; B: 9%; C: -13%; D: 15%; E: -8%[46.1 µM]; F: -13%

COc1ccc(C2Nc3ccccc3C(=O)N2c2ccccc2)cc1CSc1ccccn1 (centres undefined)
  A: 32µM*; B: 4%; C: -28%; D: 9%; E: -4%[46.1 µM]; F: 9%

COc1cccc(NC(=O)CNC(=O)Cn2c(C)cc3ccccc3c2=O)c1
  A: -3%; B: -1%; C: 1%; D: 6%[9.27 µM]; E: .; F: 0%

COc1ccc(N2C(=O)c3ccccc3NC2c2ccc(OC)c(COc3ccccc3F)c2)cc1 (centres undefined)
  A: 4%; B: .; C: .; D: ?; E: .; F: 0%

O=C1c2ccccc2NC(c2ccncc2)N1c1ccccn1 (centres undefined)
  A: 28µM*; B: -1%; C: -6%; D: 1%; E: 6%; F: 1%
